Data reported in BindingDB's records for doi:10.1016/s0014-2999(97)01393-9 (Mayo Clinic, 1997).
Structures can show the parent of a compound that is named as a salt.

By UniProt entry, the sequences of proteins in these tests, tags left out.
UniProt P23975, whole entry: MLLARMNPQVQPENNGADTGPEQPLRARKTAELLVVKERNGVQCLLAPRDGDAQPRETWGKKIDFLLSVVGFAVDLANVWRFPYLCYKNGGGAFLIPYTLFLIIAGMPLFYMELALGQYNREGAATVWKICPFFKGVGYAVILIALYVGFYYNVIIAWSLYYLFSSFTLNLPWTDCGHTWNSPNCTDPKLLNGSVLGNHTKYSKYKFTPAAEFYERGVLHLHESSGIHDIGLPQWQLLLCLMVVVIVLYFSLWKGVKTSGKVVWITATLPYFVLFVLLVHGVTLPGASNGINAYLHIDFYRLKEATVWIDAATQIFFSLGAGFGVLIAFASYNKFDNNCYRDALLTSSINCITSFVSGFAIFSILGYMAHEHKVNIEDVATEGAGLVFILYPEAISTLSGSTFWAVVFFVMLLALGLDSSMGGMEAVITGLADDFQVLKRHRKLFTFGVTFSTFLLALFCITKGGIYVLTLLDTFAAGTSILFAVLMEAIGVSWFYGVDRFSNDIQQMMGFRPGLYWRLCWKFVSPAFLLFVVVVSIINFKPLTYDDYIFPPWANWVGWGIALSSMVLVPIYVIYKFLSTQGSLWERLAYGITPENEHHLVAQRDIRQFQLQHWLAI
UniProt P31645, whole entry: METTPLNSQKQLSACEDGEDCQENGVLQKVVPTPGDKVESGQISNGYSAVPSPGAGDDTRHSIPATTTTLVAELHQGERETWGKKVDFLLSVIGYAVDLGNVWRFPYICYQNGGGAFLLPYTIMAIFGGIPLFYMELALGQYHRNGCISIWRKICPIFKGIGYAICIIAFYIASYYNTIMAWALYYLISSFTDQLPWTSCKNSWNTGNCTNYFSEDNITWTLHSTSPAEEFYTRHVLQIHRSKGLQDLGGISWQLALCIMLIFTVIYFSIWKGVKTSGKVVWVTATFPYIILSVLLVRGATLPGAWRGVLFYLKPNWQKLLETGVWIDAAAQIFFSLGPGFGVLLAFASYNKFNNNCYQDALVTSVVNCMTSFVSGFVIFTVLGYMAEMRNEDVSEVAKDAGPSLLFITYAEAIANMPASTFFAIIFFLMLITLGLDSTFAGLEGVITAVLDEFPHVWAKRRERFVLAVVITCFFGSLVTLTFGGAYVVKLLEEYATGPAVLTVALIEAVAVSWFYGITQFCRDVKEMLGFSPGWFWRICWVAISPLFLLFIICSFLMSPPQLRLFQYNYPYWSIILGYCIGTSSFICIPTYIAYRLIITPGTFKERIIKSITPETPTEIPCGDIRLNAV

These compounds were tested against Sodium-dependent noradrenaline transporter (Homo sapiens, UniProt P23975).
In the case of `CC(NC(C)(C)C)C(=O)c1cccc(Cl)c1` (stereo unspecified) [BUPROPION HYDROCHLORIDE], the Ki is reported as > 10 µM.

Each compound was assayed against Sodium-dependent serotonin transporter (Homo sapiens, UniProt P31645).
Compound `CCc1nn(CCCN2CCN(c3cccc(Cl)c3)CC2)c(=O)n1CC` [NSC_40589] has a Ki of 0.89 µM. In the case of `CCOc1ccccc1OCC1CNCCO1` (stereo unspecified) [2-(2-Ethoxy-phenoxymethyl)-morpholine(viloxazine)], the Ki is reported as > 10 µM. In the case of `CC(CC1c2ccccc2CCc2ccccc21)CN(C)C` (stereo unspecified) [CAS_15686-37-0], the Ki is reported as 1.36 µM. For `N[C@@H]1C[C@H]1c1ccccc1` [Tranylcypromine,(+)], the Ki was > 10 µM. In the case of `N[C@H]1CC[C@@H](c2ccc(Cl)c(Cl)c2)c2ccccc21`, the Ki is reported as 0.003 µM.
